Results reported in patent publication US11273167B2, “Compositions and methods for modulating ABHD2 activity” (The Regents of the University of California, priority 2015, dated 2022).

Experiments:
human CatSper channel = test: Whole-cell patch-clamp recording of CatSper currents (ICatSper) from human spermatozoa; conditions: human spermatozoa
Description: All CatSper recordings was performed as described in (Lishko et al., 2013; Lishko et al., 2011). Briefly, gigaohm seal between the patch pipette and human spermatozoon was formed at the cytoplasmic droplet. Spermatozoa were patched either at the cytoplasmic droplet or, if the cytoplasmic droplet was inconspicuous, at the neck region. Seals were formed in high saline (HS) solution containing: 130 mM NaCl, 5 mM KCl, 1 mM MgSO4, 2 mM CaCl2, 5 mM glucose, 1 mM sodium pyruvate, 10 mM lactic acid, 20 mM HEPES, pH 7.4 adjusted with NaOH, 320 mOsm/L. Transition into the whole-cell mode was performed by applying short voltage pulses. Access resistance was 25-40 M. Cells were stimulated every 5 s. Data were sampled at 2-5 kHz and filtered at 1 kHz. […] Data were analysed with Origin 7.0 and Clampfit 9.2. Statistical data were calculated as the mean±S.E.M., and (n) indicates number of experiments. […] The data were fitted with Boltzmann equation y=1/(1+exp((x−t)/dx)) and mean ti numbers were determined from (n) independent experiments. […]
Data were analyzed with Origin 7.0 and Clampfit 9.2. Statistical data were calculated and represented everywhere in text as the mean±S.E.M., and (n) indicates number of experiments. […] The data were fitted with Boltzmann equation y=1/[1+exp((x−τ)/dx)] and mean τ numbers were determined from (n) independent experiments. […]

mouse spermatozoa = test: Acrosome exocytosis assessment in live capacitated mouse sperm; assay type: cell-based; conditions: 2 μM MAFP pre-incubation
human spermatozoa = test: Sperm motility analysis (CASA); assay type: cell-based; conditions: MAFP 2 μM pre-incubation, progesterone 3 μM

methyl arachidonyl fluorophosphanate
effect on prostaglandin E1 (PGE1)-stimulated CatSper activation (human CatSper channel): no appreciable influence
effect on nascent/basal CatSper current (human CatSper channel; extracellular application): no effect on basal CatSper activity
effect on P4-stimulated mouse acrosome reaction (mouse spermatozoa): blocks the P4 effect
effect on P4-induced motility changes (human spermatozoa): ablated P4-induced motility changes
